Values of other authors as cited in patent US20080227813A1, “Pharmaceutical compositions and methods for treating diseases associated with neurodegeneration” (priority 2006, published 2008).

Tested on: patients suffering from ALS
Conditions: cited from earlier work

Nc1nc2ccc(OC(F)(F)F)cc2s1 [riluzole, Riluzole]
extension of survival: approximately 3 months
